Source: patent US4973734A, “Carbaphens: aprophen analogs that are binary antidotes for organophosphate poisoning” (dated 1990)

Protein sequences, listed by entry. Tags and fused reporters are not part of them. Residues count along the entry.
UniProt H0W1Z3, 1-590: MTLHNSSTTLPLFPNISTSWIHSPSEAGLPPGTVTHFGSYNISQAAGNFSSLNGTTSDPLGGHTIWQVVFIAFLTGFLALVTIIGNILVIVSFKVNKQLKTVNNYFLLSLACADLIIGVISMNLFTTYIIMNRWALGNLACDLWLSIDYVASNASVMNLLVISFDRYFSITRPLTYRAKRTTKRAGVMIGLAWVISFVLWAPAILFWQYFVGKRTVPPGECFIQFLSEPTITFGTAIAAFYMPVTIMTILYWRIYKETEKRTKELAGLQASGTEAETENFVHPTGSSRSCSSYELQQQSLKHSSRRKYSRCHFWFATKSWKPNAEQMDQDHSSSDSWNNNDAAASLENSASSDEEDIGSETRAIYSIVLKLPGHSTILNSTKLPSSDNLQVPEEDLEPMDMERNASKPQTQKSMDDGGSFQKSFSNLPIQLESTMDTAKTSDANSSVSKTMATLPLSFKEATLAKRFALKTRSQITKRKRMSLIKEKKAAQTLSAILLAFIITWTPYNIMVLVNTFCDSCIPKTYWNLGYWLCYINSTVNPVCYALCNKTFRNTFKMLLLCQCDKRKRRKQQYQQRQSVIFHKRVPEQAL
UniProt P08483, whole entry, looked up: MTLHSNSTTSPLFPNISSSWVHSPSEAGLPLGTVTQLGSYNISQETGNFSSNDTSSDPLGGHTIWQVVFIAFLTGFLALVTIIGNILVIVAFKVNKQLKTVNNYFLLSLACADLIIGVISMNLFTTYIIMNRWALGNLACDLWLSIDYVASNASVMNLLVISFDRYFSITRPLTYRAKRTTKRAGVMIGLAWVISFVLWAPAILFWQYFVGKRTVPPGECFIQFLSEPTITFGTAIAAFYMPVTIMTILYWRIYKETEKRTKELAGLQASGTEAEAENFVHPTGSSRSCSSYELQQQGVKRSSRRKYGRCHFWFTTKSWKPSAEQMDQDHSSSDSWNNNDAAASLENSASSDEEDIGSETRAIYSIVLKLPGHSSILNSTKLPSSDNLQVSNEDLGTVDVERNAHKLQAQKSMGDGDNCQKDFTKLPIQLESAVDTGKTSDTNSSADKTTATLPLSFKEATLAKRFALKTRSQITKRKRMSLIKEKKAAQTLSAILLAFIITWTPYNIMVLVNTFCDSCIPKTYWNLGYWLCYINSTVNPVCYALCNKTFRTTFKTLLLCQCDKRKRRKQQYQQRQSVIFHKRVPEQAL
UniProt P06276, 29-602 limits assumed: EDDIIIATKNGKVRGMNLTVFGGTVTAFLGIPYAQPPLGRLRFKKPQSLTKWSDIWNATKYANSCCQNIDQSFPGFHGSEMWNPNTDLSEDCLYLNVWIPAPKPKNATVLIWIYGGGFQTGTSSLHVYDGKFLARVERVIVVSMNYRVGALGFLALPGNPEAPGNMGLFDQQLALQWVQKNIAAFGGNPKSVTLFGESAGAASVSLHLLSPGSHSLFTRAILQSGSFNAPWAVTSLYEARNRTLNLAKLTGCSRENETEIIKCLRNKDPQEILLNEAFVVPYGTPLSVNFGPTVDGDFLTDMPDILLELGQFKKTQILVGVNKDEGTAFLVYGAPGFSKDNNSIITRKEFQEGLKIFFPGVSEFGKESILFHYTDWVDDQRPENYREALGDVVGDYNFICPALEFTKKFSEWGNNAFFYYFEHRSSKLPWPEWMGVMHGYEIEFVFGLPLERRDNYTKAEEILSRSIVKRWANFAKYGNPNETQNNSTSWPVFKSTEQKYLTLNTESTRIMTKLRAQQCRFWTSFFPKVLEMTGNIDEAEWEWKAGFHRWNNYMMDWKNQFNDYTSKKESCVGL

Experiments:
[1] = test system: muscarinic receptors; assay: Overall antimuscarinic activity (ileum contraction, α-amylase release, [^3 H]NMS binding)
[2] = test system: M1 receptor subtype; assay: [^3 H]NMS binding to cerebral cortex
[3] = biological target: M2 receptor subtype (Cavia porcellus, UniProt H0W1Z3); assay: Inhibition of acetylcholine-induced contraction of guinea pig ileum; settings: for pA2, Inhibition of Guinea Pig Ileum Contraction: acetylcholine-induced contraction, mean of four to five independent experiments ± standard errors of the mean
[4] = biological target: M2 receptor subtype (Rattus norvegicus, UniProt P08483); assay: Inhibition of carbachol-induced α-amylase release from pancreatic acini
[5] = biological target: T1, human serum butyrylcholinesterase (Homo sapiens, UniProt P06276); assay: Inhibition (carbamylation) of human serum butyrylcholinesterase; settings: for inhibition of human butyrylcholinesterase (in words): time-dependent manner
[6] = test system: 7-(methylethoxyphosphinyloxy)-1-methylquinolinium iodide (MEPQ); assay: Guinea pig pretreatment followed by MEPQ (organophosphate) challenge; settings: no other supportive drugs
[7] = test system: butyrylcholinesterase; settings: steady-state kinetics; cited from earlier work
[8] = biological target: T1, human serum butyrylcholinesterase; settings: cited from earlier work

CCN(CC)CCOC(=O)C(C)(c1ccccc1)c1ccc(O)cc1 (stereo not shown)
preference for the M2 subtype of the pancreas over the M subtype of the cerebral cortex ([1]; pancreas α-amylase vs cortex [^3 H]NMS): about 18 fold

CCN(CC)CCOC(=O)C(C)(c1ccc(OC(=O)N(C)C)cc1)c1ccc(OC(=O)N(C)C)cc1
muscarinic subtype specificity (in words) [1]: do not exhibit any muscarinic subtype specificity | Ki, Inhibition of Cerebral cortex [^3 H]NMS binding ([2]; 2 nM [^3 H]NMS, mean of four to five independent experiments ± standard errors of the mean): marginal activity | pA2, Inhibition of Guinea Pig Ileum Contraction [3]: not active | Ki, Inhibition of Pancreatic Acini α-amylase Release ([4]; 10^-5 M carbachol, mean of four to five independent experiments ± standard errors of the mean): not active | activity as carbamates (in words) [5]: potent ability to carbamylate butyrylcholinesterase

CCN(CC)CCOC(=O)C(C)(c1ccc(O)cc1)c1ccc(O)cc1
Ki ([1]; read-out: antimuscarinic inhibition constants): 1 µM

CCN(CC)CCOC(=O)C(C)(c1ccccc1)c1ccc(OC(=O)N(C)C)cc1 (stereo not shown)
anti-muscarinic profile compared with aprophen [1]: almost the same anti-muscarinic profile | muscarinic subtype specificity (in words) [1]: do not exhibit any muscarinic subtype specificity | inhibition of [^3 H]NMS binding compared with monomethyl carbaphen (Compound 16) [2]: one order of magnitude lower | pA2, Inhibition of Guinea Pig Ileum Contraction [3]: 7.1 ± 0.1 | pA2 compared with monomethyl carbaphen (Compound 16) ([3]; inhibition of ileum contraction): about the same | inhibition of α-amylase release compared with monomethyl carbaphen (Compound 16) [4]: one order of magnitude lower | activity as carbamates (in words) [5]: potent ability to carbamylate butyrylcholinesterase | potency compared with physostigmine and pyridostigmine [5]: high potencies on the order of those of physostigmine and pyridostigmine | inhibition of human butyrylcholinesterase (in words) [5]: highly inhibitory

CCN(CC)CCOC(=O)C(C)(c1ccc(O)cc1)c1ccc(OC(=O)N(C)C)cc1 (stereo not shown)
antimuscarinic activities compared with dimethyl carbaphen [1]: one to two orders of magnitude lower | antimuscarinic activity (in words) [1]: poor antimuscarinic potency | muscarinic subtype specificity (in words) [1]: do not exhibit any muscarinic subtype specificity | pA2, Inhibition of Guinea Pig Ileum Contraction [3]: 5.5 ± 0.2 | activity as carbamates (in words) [5]: potent ability to carbamylate butyrylcholinesterase | potency compared with physostigmine and pyridostigmine [5]: high potencies on the order of those of physostigmine and pyridostigmine | inhibition of human butyrylcholinesterase (in words) [5]: highly inhibitory

CCN(CC)CCOC(=O)C(C)(c1ccccc1)c1ccc(OC(=O)NC)cc1 (stereo not shown)
muscarinic subtype specificity (in words) [1]: more specificity for the pancreatic M2 receptor subtype over the M1 subtype of the cortex | protection against multiple LD50 doses of organophosphate [6]: protective characteristics against multiple LD50 doses of a potent organophosphate | pA2, Inhibition of Guinea Pig Ileum Contraction [3]: 7.3 ± 0.1 | activity as carbamates (in words) [5]: potent ability to carbamylate butyrylcholinesterase | potency compared with physostigmine and pyridostigmine [5]: high potencies on the order of those of physostigmine and pyridostigmine | inhibition of human butyrylcholinesterase (in words) [5]: highly inhibitory

CCN(CC)CCOC(=O)C(C)(c1ccccc1)c1ccccc1
inhibition of butyrylcholinesterase over acetylcholinesterase [7]: preferentially inhibit butyrylcholinesterase over acetylcholinesterase | hydrolysis by human serum butyrylcholinesterase [8]: not subject to hydrolysis
